# Experimental data as given in paper PMC2941209 (Synapse (New York, N.Y.), 2010).
# By UniProt entry, the sequences of proteins in these tests, tags left out.
# UniProt P31652, whole entry: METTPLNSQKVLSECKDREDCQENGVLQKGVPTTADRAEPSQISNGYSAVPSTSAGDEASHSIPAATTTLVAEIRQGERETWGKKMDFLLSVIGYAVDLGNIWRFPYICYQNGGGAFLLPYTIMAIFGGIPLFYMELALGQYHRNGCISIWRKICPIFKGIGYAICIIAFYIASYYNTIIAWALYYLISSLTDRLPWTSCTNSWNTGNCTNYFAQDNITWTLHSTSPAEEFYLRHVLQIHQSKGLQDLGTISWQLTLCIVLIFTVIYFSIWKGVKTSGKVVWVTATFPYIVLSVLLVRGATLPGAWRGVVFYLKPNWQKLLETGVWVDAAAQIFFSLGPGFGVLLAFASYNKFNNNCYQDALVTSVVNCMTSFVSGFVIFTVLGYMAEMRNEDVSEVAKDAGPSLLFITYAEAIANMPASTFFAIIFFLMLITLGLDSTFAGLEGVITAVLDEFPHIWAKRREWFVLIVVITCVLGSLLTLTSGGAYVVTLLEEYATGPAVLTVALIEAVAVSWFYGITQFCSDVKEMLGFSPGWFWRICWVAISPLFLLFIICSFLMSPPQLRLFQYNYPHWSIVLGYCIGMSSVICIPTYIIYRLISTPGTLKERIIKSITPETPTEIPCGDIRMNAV
# What was measured:
# [1] = target: T1, SERT (Rattus norvegicus, UniProt P31652); assay: [3H]5-HT uptake inhibition assay; type: biochemical
# [2] = target: T1, SERT; assay: [3H]5-HT release assay
# [3] = 1 μM test compound, substrate MDMA
Molecule,IC50 [1] [nM],"effect on EMAX of MDMA-induced [3H]5-HT release [2, 3]","rightward shift of the MDMA dose-response curve ([3H]5-HT release) [2, 3]",Ke value lower than IC50 for inhibiting [3H]5-HT uptake (fold lower) ([2]; substrate not given) [fold],"EMAX substrate-induced [3H]5-HT release, CONTROL ([2]; substrate alone (control), 100% = release by 100 μM tyramine, ±SD) [%]"
CC(N)Cc1c[nH]c2ccc(OCc3cccs3)cc12 (stereo not drawn) [α-methyl-5-(2-thienylmethoxy)-1H-indole-3-ethanamine],1860,without altering the EMAX values,3–4 fold,4.6,–
(+)-fenfluramine,–,–,–,–,100±6
